pIC50: −log10 of the molar value.
Target: Protein smoothened (Mus musculus, UniProt P56726)
Experiment: Inhibition of smo-mediated hedgehog signaling pathway in mouse ASZ001 cells assessed as decrease in Gli1 mRNA expression after 48 hrs by qPCR method
Assay type: cell-based
Procedure, shortened: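 Gli1 mRNA measured by qPCR after 48 h incubation with compound, normalized to actin as internal control. Concentrations judged cytotoxic (by visual assessment and/or a significant drop in actin expression) were excluded from analysis. IC50 given as mean ± SEM of at least two separate experiments, each in triplicate.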

By UniProt entry, the sequences of proteins in these tests, tags left out.
UniProt P56726, whole entry: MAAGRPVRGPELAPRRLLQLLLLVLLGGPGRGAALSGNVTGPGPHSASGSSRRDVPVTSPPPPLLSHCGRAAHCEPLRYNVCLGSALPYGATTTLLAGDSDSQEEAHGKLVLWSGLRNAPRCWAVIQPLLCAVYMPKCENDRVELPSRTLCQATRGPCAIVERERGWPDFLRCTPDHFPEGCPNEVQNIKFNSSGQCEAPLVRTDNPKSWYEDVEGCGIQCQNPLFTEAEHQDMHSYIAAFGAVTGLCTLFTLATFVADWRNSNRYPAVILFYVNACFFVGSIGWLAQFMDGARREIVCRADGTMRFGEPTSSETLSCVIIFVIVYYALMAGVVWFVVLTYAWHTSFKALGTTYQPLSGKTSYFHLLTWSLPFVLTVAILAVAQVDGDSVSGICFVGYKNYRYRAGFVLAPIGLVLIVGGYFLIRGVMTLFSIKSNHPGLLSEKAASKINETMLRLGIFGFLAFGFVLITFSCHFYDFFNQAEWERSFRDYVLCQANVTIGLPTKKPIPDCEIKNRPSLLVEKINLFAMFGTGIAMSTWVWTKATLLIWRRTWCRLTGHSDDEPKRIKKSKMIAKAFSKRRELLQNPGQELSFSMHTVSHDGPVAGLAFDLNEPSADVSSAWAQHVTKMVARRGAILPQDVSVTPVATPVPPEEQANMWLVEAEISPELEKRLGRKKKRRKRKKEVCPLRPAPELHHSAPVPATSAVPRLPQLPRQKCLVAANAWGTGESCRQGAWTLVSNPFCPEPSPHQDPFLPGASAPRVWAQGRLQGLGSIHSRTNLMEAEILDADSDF

Row | SMILES | pIC50
1 | C[C@@]1(c2ccc(Cl)cc2Cl)OC[C@@H](COc2ccc(N3CCN(c4ccc(NC(=O)Oc5ccccc5)cc4)CC3)cc2)O1 | < 5.00
2 | C[C@]1(c2ccc(Cl)cc2Cl)OC[C@@H](COc2ccc(N3CCN(c4ccc(NC(=O)Oc5ccccc5)cc4)CC3)cc2)O1 | < 5.00
